Binding of CDR-mutated scFvs to a peptide of the spike HR2 region

Data: MIT Lincoln Laboratory AlphaSeq set, Engelhart et al. 2022, doi:10.1038/s41597-022-01779-4, as distributed in FLAb.

The target is the same throughout: PDVDLGDISGINAS, from the HR2 region of SARS-CoV-2 spike.

Ab-14 is the parent antibody, in scFv form: VH, then a (GGGGS)3 linker, then VL. The light chain is unchanged in all variants.
VH: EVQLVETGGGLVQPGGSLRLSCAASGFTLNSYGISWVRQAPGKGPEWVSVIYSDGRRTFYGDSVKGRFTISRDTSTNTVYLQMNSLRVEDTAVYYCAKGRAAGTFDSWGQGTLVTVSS
VL: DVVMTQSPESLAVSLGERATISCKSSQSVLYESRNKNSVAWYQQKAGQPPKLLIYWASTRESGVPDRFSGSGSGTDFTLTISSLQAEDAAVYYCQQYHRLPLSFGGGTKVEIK

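AAYL49 was designed without a model: most single CDR substitutions and a random sample of double and triple ones. The scFvs were displayed on barcoded MATa yeast, the peptide on MATalpha yeast. After mating in shaken culture at 30 °C for 16 h, diploids were selected and their barcode pairs sequenced. A regression on co-assayed BCL2-family reference pairs converts the normalised counts of each replicate to an apparent Kd. Each pool was mated in three replicate cultures.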

Substitutions are numbered in sequence along the VH above, starting at 1 (not Kabat). Every variant below is changed at G99 of the VH (sequential numbering). Kd is apparent (estimated from mating counts) and averaged on the log scale over replicates with a signal. Smaller is tighter. Where no diploid with the target was found in any replicate, the entry reads "not detected": below detection, most likely a poor binder, though not proof of it. Empty control strains, which show no peptide, gave a signal in 15% of pairings with library AAYL49; the median was 11 µM and 95% of these signals were weaker than 680 nM. No background was subtracted. For each scFv, signals with the empty controls are counted beside the result. For reference, the parent read 4.4 nM as the reference entry and 13 µM (one replicate of three) as a member of this library.

changes,apparent Kd,detected,control signals
G33F Y60V G99R,not detected,0/3,1/9
N30R S31F G99M,not detected,0/3,2/9
T28D V64K G99S,not detected,0/3,0/9
I34V K65W G99T,82 nM,3/3,2/9
G26S S31H G99A,not detected,0/3,0/9
G99M D106F,11 µM,1/3,0/9
D54F Y60N G99Y,not detected,0/3,0/9
N30L G99S,not detected,0/3,0/9
Y32E F59P G99S,not detected,0/3,0/9
G55P K65I G99W,130 µM,1/3,0/9
G26H V50W G99Q,21 µM,1/3,0/9
D54Y R57I G99K,23 µM,2/3,2/9
F27W S53D G99S,not detected,0/3,2/9
S53Q T58E G99L,not detected,0/3,2/9
F27W T28L G99S,6.8 µM,1/3,2/9
I34N G99C S107F,not detected,0/3,0/9
I34V G99Q A102N,290 µM,1/3,6/9
R57T Y60I G99W,not detected,0/3,0/9
G55V F59N G99N,12 µM,1/3,1/9
G26L G99K,1.1 µM,1/3,0/9
V50E G99V R100F,not detected,0/3,1/9
T58D G99L A102L,12 µM,1/3,1/9
S35G Y60D G99V,not detected,0/3,2/9
S31T G33D G99R,86 µM,1/3,1/9
S53H G99V T104C,13 µM,1/3,0/9
L29Y D62E G99K,not detected,0/3,0/9
I51Q D54W G99P,not detected,0/3,0/9
Y60I D62E G99H,200 nM,2/3,0/9
L29H G55T G99H,120 µM,1/3,0/9
S35I R56H G99W,16 µM,2/3,5/9
S31E G99E A101L,not detected,0/3,0/9
F27P G99N S107P,2.7 µM,1/3,4/9
G55W V64I G99A,not detected,0/3,0/9
G26P G99S,5.7 µM,1/3,5/9
G33M G55Q G99F,not detected,0/3,1/9
G99E,1.7 µM,1/3,0/9
F27V K65M G99V,3.0 µM,2/3,0/9
F59S G99C A102F,25 nM,3/3,1/9
G55K R56L G99E,45 µM,1/3,0/9
S35N G99F A102F,not detected,0/3,0/9
F27W Y60N G99F,not detected,0/3,1/9
G99D S107G,not detected,0/3,0/9
F59C G61I G99S,3.8 µM,1/3,2/9
G26D G99P,10 µM,3/3,6/9
S53L G99L G103Q,not detected,0/3,0/9
Y52Q G99Y F105L,10 µM,2/3,0/9
F27W R57E G99N,7.9 µM,2/3,2/9
F59E G99F,100 µM,3/3,2/9
G26L V64I G99N,not detected,0/3,3/9
T28W T58D G99H,21 µM,2/3,2/9
S63L G99Y A102R,58 µM,2/3,6/9

8 of these entries, quoted again:

changes,apparent Kd,detected,control signals
F59C G61I G99S,3.8 µM,1/3,2/9
S31T G33D G99R,86 µM,1/3,1/9
V50E G99V R100F,not detected,0/3,1/9
G33F Y60V G99R,not detected,0/3,1/9
G99M D106F,11 µM,1/3,0/9
I34V G99Q A102N,290 µM,1/3,6/9
T28W T58D G99H,21 µM,2/3,2/9
F59E G99F,100 µM,3/3,2/9